Measurements reported in patent publication US8575197B2, “Pyrolinone derivative and pharmaceutical composition comprising the same” (Shionogi & Co., Ltd., priority 2008, dated 2013).

By UniProt entry, the sequences of proteins in these tests, tags left out.
UniProt P56373, whole entry: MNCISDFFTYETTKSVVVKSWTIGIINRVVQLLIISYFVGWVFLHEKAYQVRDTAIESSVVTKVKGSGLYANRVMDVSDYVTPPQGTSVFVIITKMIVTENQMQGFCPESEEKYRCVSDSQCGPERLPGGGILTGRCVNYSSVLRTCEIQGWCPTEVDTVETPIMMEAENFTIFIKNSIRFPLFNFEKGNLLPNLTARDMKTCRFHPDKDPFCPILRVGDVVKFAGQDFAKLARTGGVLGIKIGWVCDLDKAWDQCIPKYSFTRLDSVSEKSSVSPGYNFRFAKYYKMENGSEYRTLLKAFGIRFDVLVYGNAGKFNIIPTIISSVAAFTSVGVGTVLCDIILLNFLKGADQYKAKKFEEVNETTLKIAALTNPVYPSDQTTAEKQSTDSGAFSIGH

target: human P2X3 receptor (Homo sapiens (Human), UniProt P56373); experiment: P2X3 receptor inhibition, ATP-evoked Fluo-3 calcium fluorescence (FDSS 3000); format: cell-based; conditions: read-out: P2X3 IC50; C6BU-1 cell transfected with human P2X3 receptor gene; ATP-evoked Fluo-3 fluorescence

`COc1ccccc1C1C(C(=O)CC(C)C)=C(O)C(=O)N1c1ccc(SC)cc1` (stereo not shown) and `Cc1nc(-c2ccc(N3C(=O)C(O)=C(C(=O)CC(C)C)C3c3ccccc3OCC#N)cc2)no1` (stereo not shown) are within 1.5-fold of each other in IC50: 125 nM for the first, 174 nM for the second.

Compared with `Cc1noc(-c2ccc(N3C(=O)C(O)=C(C(=O)C(C)C)C3c3ccccc3OC(C)C)cc2)n1` (stereo not shown), `COc1ncccc1C1c2c(C(C)(C)C)n[nH]c2C(=O)N1c1ccc(N(C)C)cc1` (stereo not shown) is 2.2-fold higher in IC50: 232 nM for the first, 505 nM for the second. The first is the more potent here.
